pIC50: −log10 of the molar value.

Protein sequences, listed by entry. Tags and fused reporters are not part of them. Lines headed by an entry give the natural chain unless they say otherwise; changes in a name come on top.
UniProt P34913, whole entry: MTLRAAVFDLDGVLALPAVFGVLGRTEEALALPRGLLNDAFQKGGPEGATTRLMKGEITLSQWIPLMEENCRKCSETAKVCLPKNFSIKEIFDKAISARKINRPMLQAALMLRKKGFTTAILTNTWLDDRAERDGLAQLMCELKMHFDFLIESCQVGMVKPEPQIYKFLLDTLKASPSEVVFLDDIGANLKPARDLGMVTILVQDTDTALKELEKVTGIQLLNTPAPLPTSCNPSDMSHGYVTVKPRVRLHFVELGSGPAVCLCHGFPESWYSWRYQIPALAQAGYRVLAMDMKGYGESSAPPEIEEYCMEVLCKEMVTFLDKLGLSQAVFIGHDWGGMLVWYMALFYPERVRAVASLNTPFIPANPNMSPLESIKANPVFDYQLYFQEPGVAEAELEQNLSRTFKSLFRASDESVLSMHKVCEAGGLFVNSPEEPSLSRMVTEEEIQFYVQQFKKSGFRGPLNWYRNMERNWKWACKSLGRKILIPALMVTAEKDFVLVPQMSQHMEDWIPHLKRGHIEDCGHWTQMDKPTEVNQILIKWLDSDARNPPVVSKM
UniProt P34914: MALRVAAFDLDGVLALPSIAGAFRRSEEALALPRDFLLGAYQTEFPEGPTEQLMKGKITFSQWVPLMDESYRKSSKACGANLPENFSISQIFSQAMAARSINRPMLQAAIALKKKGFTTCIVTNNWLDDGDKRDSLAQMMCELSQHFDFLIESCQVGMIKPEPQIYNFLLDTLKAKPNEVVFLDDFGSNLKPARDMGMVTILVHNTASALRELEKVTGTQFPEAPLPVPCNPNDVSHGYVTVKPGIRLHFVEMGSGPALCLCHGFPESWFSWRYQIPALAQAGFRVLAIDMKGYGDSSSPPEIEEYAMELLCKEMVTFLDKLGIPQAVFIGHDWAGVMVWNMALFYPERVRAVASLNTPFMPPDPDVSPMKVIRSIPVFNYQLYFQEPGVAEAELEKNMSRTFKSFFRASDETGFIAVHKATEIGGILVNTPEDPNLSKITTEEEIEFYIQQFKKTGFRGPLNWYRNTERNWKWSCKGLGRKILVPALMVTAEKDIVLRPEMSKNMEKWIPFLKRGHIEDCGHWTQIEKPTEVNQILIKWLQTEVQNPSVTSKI

Assay [1] deals with Bifunctional epoxide hydrolase 2 (Homo sapiens, UniProt P34913).
The target in assay [2] is Bifunctional epoxide hydrolase 2 (Mus musculus, UniProt P34914). As to the kind of experiment: Inhibition of mouse soluble epoxide hydrolase by spectrometric based assay.

As for `O=C(NCCCCCCCCCCCC(=O)OCc1ccccc1Cl)NC12CC3CC(CC(C3)C1)C2`, the pIC50 (commonly the IC50 on a negative log10 scale, so that one unit is a factor of ten) in assay [1] was 8.77; in assay [2], 7.30.
On to `O=C(NCCCCCCCCCCCC(=O)OCc1cccc2ccccc12)NC12CC3CC(CC(C3)C1)C2`, for which the pIC50 in assay [1] was 8.62.
For the molecule `CC(C)(C)OC(=O)CCCCCCCCCCCNC(=O)NC12CC3CC(CC(C3)C1)C2`, the negative logarithm of the IC50 (pIC50) in assay [1] is 8.89.
In turn, `CCCCOC(=O)CCCCCCCCCCCNC(=O)NC12CC3CC(CC(C3)C1)C2` had a pIC50 in assay [1] of 9.10.

Source of the values: ChEMBL document CHEMBL1144497 (Bioorg Med Chem, 2007).
